Reference: patent publication US20030166631A1, “Pharmaceutical compositions and methods for administering EP2 receptor selective agonists” (priority 2001, published 2003)

Protein sequences, listed by entry. Tags and fused reporters are not part of them. Lines headed by an entry give the natural chain unless they say otherwise; changes in a name come on top.
UniProt P43116: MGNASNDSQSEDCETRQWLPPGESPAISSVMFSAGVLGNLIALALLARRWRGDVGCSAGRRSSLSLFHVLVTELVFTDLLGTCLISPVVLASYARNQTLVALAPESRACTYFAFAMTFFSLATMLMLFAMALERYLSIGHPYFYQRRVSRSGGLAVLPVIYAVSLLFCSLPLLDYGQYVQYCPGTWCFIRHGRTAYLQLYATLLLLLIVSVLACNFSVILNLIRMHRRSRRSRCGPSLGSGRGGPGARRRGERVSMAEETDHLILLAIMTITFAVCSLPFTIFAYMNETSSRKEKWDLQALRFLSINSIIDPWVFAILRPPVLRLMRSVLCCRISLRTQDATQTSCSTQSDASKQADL

Target: T1, human EP2 receptors (Homo sapiens, UniProt P43116)
T1 construct: cDNAs representing the complete open reading frames of the human EP2 receptors; expressed in transfected cells
Experiment: Scatchard analysis of specific [3H]PGE2 binding in transfected 293-S cells
Details: 293-S line selected for compound screening, EP2 receptor subtype

## CCCCC[C@H](O)/C=C/[C@H]1[C@H](O)CC(=O)[C@@H]1C/C=C\CCCC(=O)O [PGE2, Prostaglandin E2]
  Kd: 12 nM
